Consider two molecules from patent US20190070251A1.

The experiment concerns the target GPR54 G-Protein coupled receptor (cloned human GPR54) (human) (UniProt Q969F8). In words: cell-based or functional assay.

B1: mono-[mPEG-SBC-30K]-[Kisspeptin-10] (peptide)
peptide: YNWNSFGLRF
modifications: C-terminal amide; one mPEG-SBC-30K attached through a releasable carbamate linkage (site not stated)
In the case of B1, the EC50 (nM) of agonist activation at GPR54; time of release 0 h was 280 nM.

B2: mono-[mPEG2-CAC-FMOC-40K]-[Kisspeptin-10] (peptide)
peptide: YNWNSFGLRF
modifications: C-terminal amide; one branched mPEG2-CAC-FMOC-40K attached through a releasable carbamate linkage (site not stated)
B2 displayed an EC50 (nM) of agonist activation at GPR54; time of release 0 h of 1700 nM, an EC50 (nM) of agonist activation at GPR54; time of release 24 h of 120 nM, an EC50 (nM) of agonist activation at GPR54; time of release 48 h of 74 nM and an EC50 (nM) of agonist activation at GPR54; time of release 96 h of 47 nM.
